## scFv variants of Ab-14 (light chain) against a SARS-CoV-2 spike peptide

Target: peptide PDVDLGDISGINAS, taken from heptad repeat 2 (HR2) of SARS-CoV-2 spike.

Ab-14 is the parent antibody, in scFv form: VH, then a (GGGGS)3 linker, then VL. The heavy chain is unchanged in all variants.
VH: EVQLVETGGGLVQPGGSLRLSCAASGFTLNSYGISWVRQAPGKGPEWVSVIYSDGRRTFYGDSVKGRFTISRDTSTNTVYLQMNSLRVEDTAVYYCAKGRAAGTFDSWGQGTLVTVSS
VL: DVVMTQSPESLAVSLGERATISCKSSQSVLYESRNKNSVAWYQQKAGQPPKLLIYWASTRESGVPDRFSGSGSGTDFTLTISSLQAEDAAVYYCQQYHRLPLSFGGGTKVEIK

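Phage display of a naive human antibody library on the peptide gave the parent. Designed CDR sequences, proposed from the first random library and measured here. Their group label is 14L_Ctrl (Ctrl: baseline library sampled from a position-specific scoring matrix, with some repeated check sequences). The assay is AlphaSeq: two haploid yeast populations carry antibody and antigen on their surface. After mating in shaken culture at 30 °C for 16 h, diploids were selected and their barcode pairs sequenced. The ratio of observed to expected reads was calibrated, replicate by replicate, on BCL2-family standards whose Kd was known from biolayer interferometry. Mating was done six times.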

Variants are written as CDR1, CDR2 and CDR3 of the light chain (limits as in the source). Parent: KSSQSVLYESRNKNSVA, WASTRES, QQYHRLPLS.
Numbers give log10(Kd / nM), so 0 is 1 nM and 3 is 1 µM. Smaller is tighter.
"n.d." marks a missing value. The strain was present, yet no cells mated with the target were sequenced in that replicate, which points to weak or no binding.

{"CDR-L1": "KISQSVLYESRNKNSVA", "CDR-L2": "QASTRES", "CDR-L3": "QQYHRLPLS", "log10 Kd, replicates": "0.07 -0.37 -0.32 -0.23 -0.43 -0.15", "empty controls": "4/18 (3.09)"}
{"CDR-L1": "MSMQSVLYESRNKYSVA", "CDR-L2": "WASTRES", "CDR-L3": "QQYHRLPLS", "log10 Kd, replicates": "n.d. n.d. n.d. n.d. n.d. n.d.", "empty controls": "0/18"}
{"CDR-L1": "KSSQLVLYESRNKNSVA", "CDR-L2": "MASIRES", "CDR-L3": "QQYHRLPLS", "log10 Kd, replicates": "1.86 2.06 1.81 1.62 1.24 1.64", "empty controls": "1/18 (2.50)"}
{"CDR-L1": "KSSQSVLYESRNKNSVA", "CDR-L2": "EASTRES", "CDR-L3": "QQMHRLPLS", "log10 Kd, replicates": "n.d. 1.30 1.30 1.72 1.43 2.21", "empty controls": "1/18 (2.96)"}
{"CDR-L1": "KSSQSVLYESRNKNPVA", "CDR-L2": "WASTRES", "CDR-L3": "QQYHRLPLS", "log10 Kd, replicates": "n.d. n.d. n.d. 2.76 n.d. n.d.", "empty controls": "0/18"}
{"CDR-L1": "KSSQSVCYEVRNKNSVA", "CDR-L2": "WASTRES", "CDR-L3": "QQYHRLPLS", "log10 Kd, replicates": "n.d. n.d. n.d. n.d. n.d. 2.04", "empty controls": "0/18"}
{"CDR-L1": "KSSQSVLYESRNKNSVA", "CDR-L2": "WASTRES", "CDR-L3": "QLYHRLPLS", "log10 Kd, replicates": "n.d. n.d. n.d. 1.37 n.d. n.d.", "empty controls": "0/18"}
{"CDR-L1": "KSSQSVLYESRNKSSVA", "CDR-L2": "SASTREI", "CDR-L3": "QQYHRLPLS", "log10 Kd, replicates": "2.31 3.00 2.98 n.d. n.d. 3.55", "empty controls": "1/18 (3.81)"}
{"CDR-L1": "KSSQSVTYESTNKNSVA", "CDR-L2": "WASTRES", "CDR-L3": "QQYHRLPLS", "log10 Kd, replicates": "0.97 1.07 1.72 0.86 1.76 0.99", "empty controls": "0/18"}
{"CDR-L1": "KISQSVLYESRNKNSVA", "CDR-L2": "SASTRSS", "CDR-L3": "QQYHRLPLS", "log10 Kd, replicates": "-0.11 -0.11 -0.20 -0.46 -0.21 -0.19", "empty controls": "2/18 (2.77)"}
{"CDR-L1": "KSSDGVLYESTNQNSVA", "CDR-L2": "EASTRES", "CDR-L3": "QQYHRLILS", "log10 Kd, replicates": "n.d. n.d. n.d. n.d. n.d. n.d.", "empty controls": "0/18"}
{"CDR-L1": "KSSQSVLYESRNENPIA", "CDR-L2": "QASTREV", "CDR-L3": "QQYHRLPLS", "log10 Kd, replicates": "-0.16 -0.12 -0.06 -0.09 -0.22 0.04", "empty controls": "0/18"}
{"CDR-L1": "KSSQSVLDESVNKNSVA", "CDR-L2": "WASTRES", "CDR-L3": "QQYHKLPLS", "log10 Kd, replicates": "1.43 1.23 1.18 1.58 1.38 1.19", "empty controls": "2/18 (2.30)"}
{"CDR-L1": "KSSQSVLYESRNKNSVA", "CDR-L2": "WASTRES", "CDR-L3": "QQYHVLLLS", "log10 Kd, replicates": "n.d. n.d. n.d. n.d. n.d. n.d.", "empty controls": "0/18"}
{"CDR-L1": "DSSQSVLYESRNKNSVA", "CDR-L2": "TASTREI", "CDR-L3": "QQYHRLPLS", "log10 Kd, replicates": "n.d. 1.78 n.d. n.d. 2.32 n.d.", "empty controls": "0/18"}
{"CDR-L1": "KSSQPVLYESTNKNSVA", "CDR-L2": "WASTRES", "CDR-L3": "QQYHRLPLS", "log10 Kd, replicates": "1.19 1.36 1.43 2.81 1.70 1.57", "empty controls": "0/18"}
{"CDR-L1": "KSSQSVLYESRNKNSVA", "CDR-L2": "WASTRES", "CDR-L3": "QQYHRLPCS", "log10 Kd, replicates": "n.d. n.d. n.d. n.d. n.d. n.d.", "empty controls": "1/18 (2.18)"}
{"CDR-L1": "KSSQSVLYESRNKNSVA", "CDR-L2": "CASIRES", "CDR-L3": "QQYHRLPLS", "log10 Kd, replicates": "2.10 2.20 1.89 2.29 2.04 1.95", "empty controls": "2/18 (2.23)"}
{"CDR-L1": "KSSQSVPYESRNFNSVA", "CDR-L2": "WASTRET", "CDR-L3": "YVYHRLPLS", "log10 Kd, replicates": "n.d. n.d. n.d. n.d. n.d. n.d.", "empty controls": "0/18"}
{"CDR-L1": "KSSQSVYYPSRNRNDVA", "CDR-L2": "WASTRES", "CDR-L3": "QNYHRLPLS", "log10 Kd, replicates": "n.d. n.d. n.d. n.d. n.d. n.d.", "empty controls": "0/18"}

Again, the first 3 entries without any signal:

{"CDR-L1": "MSMQSVLYESRNKYSVA", "CDR-L2": "WASTRES", "CDR-L3": "QQYHRLPLS", "log10 Kd, replicates": "n.d. n.d. n.d. n.d. n.d. n.d.", "empty controls": "0/18"}
{"CDR-L1": "KSSDGVLYESTNQNSVA", "CDR-L2": "EASTRES", "CDR-L3": "QQYHRLILS", "log10 Kd, replicates": "n.d. n.d. n.d. n.d. n.d. n.d.", "empty controls": "0/18"}
{"CDR-L1": "KSSQSVLYESRNKNSVA", "CDR-L2": "WASTRES", "CDR-L3": "QQYHVLLLS", "log10 Kd, replicates": "n.d. n.d. n.d. n.d. n.d. n.d.", "empty controls": "0/18"}

The authors' rule: three or more of the six replicates give a measured affinity, fewer mean a poor binder.
Background: pairings of all light chain designs with three empty control strains gave a value in 4% of cases (median 2.64, 5th percentile 1.59). Values in that range, when seen in few replicates, are hard to tell from nonspecific mating. The control count says in how many pairings with the empty strains this scFv gave a signal, with their mean in brackets.
The range of this assay differs from that of the first round, and the authors advise against merging the two.
The parent sequence was in this pool as ten entries: three were never detected, three once, and four in most replicates, with averages from 0.34 to 2.37.

Data: MIT Lincoln Laboratory AlphaSeq set, Li et al. 2023, doi:10.1038/s41467-023-39022-2, as distributed in FLAb.